Reference: patent publication US4007196A, “4-Phenylpiperidine compounds” (priority 1973, dated 1977)

Test system: 5HT-uptake
Experiment: Antagonism of p-chloroamphetamine (PCA)-induced 5HT-depletion from rat brain (5HT-uptake inhibitory activity)
Format: in vivo
Conditions: for ED50: rat brain
From the text: 5HT-uptake inhibitory activity
Antagonism of p-chloroamphetamine (PCA)-induced 5HT-depletion from rat brain: […]

[1] = sc, test drugs administered s.c. simultaneously with PCA, read-out: ED50 s.c., antagonism of PCA-induced 5HT-depletion

Row | SMILES | ED50 p.o., antagonism of PCA-induced 5HT-depletion (po, 3 h) | ED50 (po, p.o., test drugs administered 2 hours before PCA, read-out: ED50 p.o., antagonism of PCA-induced 5HT-depletion) [mg/kg] | ED50 [1] [mg/kg] | 5HT potentiator activity compared with Imipramine (comparison in words) | ED50 (po, p.o., test drugs administered 3 hours before PCA, read-out: ED50 p.o., antagonism of PCA-induced 5HT-depletion) [mg/kg] | ED50 (po, p.o., test drugs administered 18 hours before PCA, read-out: ED50 p.o., antagonism of PCA-induced 5HT-depletion) [mg/kg]
1 | CN(C)CCCN1c2ccccc2CCc2ccc(Cl)cc21 [Chlorimipramine] | + | 42 | 1 |  |  | 
2 | Fc1ccc(C2CCNCC2COc2ccc3c(c2)OCO3)cc1 (single isomer, unassigned) [GF 74, (-)-α-4-(4-Fluorophenyl)-3-(1,3-benzdioxolyl-(3))-oxymethyl piperidine maleate] |  |  | 0.2 | more active 5HT potentiators than is Imipramine | 0.8 | 2 to 10

Where a name gives a salt, the structure may show the parent alone. Read-outs that look alike come from different tables or passages of the source.
